Values quoted from earlier work, collected in patent US20080015265A1, “Methods of treating obesity using satiety factors” (priority 2006, published 2008).

Conditions: animals

In the case of “calcitonin-gene related peptide (ACDTATCVTHRLAGLLSRSGGVVKNNFVPTNVGSKAF; Calcitonin gene-related peptide 1; UniProt P06881 83-119, looked up)”, the food intake is listed as “decrease food intake”.
